Experimental data as given in patent publication US20020094546A1.

Molecular target: PDGF BB (human) (UniProt P01127)
Experiment: cell-based or functional assay

BrdU incorporation OD-blank, CCD1070 cells, BB + betaR Fc (BB alone 0.7535; + MOPC21 0.676): 0.177 OD-blank
BrdU incorporation OD-blank, NIH/3T3 cells, BB + betaR Fc (BB alone 0.983; + MOPC21 0.995): 0.319 OD-blank
Substance: soluble beta PDGF receptor-IgFc fusion (R&D Systems) (from UniProt P09619 33-530)
